# Data as given in PubChem BioAssay AID2776 (Johns Hopkins Ion Channel Center, 2010).
# By UniProt entry, the sequences of proteins in these tests, tags left out.
# UniProt Q9QUQ5, whole entry: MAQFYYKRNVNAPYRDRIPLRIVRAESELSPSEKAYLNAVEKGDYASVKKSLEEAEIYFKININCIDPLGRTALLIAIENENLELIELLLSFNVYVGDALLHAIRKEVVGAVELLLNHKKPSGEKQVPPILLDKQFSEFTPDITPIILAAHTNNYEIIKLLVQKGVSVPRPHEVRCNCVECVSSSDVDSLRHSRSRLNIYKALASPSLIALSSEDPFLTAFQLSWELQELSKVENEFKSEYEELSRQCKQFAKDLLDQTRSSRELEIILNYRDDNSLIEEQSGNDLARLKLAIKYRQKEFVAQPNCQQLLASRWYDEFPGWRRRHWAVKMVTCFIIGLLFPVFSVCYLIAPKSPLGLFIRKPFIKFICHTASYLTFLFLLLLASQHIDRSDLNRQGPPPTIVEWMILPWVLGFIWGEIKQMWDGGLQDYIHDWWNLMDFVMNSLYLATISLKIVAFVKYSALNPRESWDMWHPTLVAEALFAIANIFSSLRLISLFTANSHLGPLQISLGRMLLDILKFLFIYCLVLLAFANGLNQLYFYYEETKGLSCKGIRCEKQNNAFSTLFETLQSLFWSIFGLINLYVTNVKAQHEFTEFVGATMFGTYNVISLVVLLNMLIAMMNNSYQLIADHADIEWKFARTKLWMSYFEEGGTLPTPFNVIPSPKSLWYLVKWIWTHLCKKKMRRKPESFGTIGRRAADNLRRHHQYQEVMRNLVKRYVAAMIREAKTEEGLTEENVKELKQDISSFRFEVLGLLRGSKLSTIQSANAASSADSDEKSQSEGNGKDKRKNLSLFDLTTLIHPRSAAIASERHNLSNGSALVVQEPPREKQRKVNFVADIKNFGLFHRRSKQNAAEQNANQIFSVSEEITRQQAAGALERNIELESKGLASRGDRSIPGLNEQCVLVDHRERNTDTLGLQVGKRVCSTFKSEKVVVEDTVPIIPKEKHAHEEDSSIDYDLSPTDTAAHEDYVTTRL
# The entries are a selection whose mix differs from that of the whole data set. Some of these compounds have results that are not shown, active ones among them. The source made the active and inactive calls.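 The calls were made as follows: active = compounds whose fluorescence signal differed from control wells by over 3 SD, either direction, in both duplicate plates; inactive = the rest.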
# Target: Short transient receptor potential channel 4 (Mus musculus) (UniProt Q9QUQ5)
# Assay: DAMGO-gated TRPC4 membrane potential modulation – cell-based, second specificity screen, HEK293 TRPC4/mu-opioid, selectivity assay for TRPC6 inhibitor project, confirmation (AID 2776)
# Conditions: HEK293 TRPC4/MOR, membrane potential dye fluorescence; at 10 µM; channel activated by saturating DAMGO dose
structure (smiles),measurement,value
O=C(OC1CN2CCC1CC2)C(CO)(c1ccccc1)c1ccccc1 (stereo unspecified),outcome,inactive
